According to PubChem BioAssay AID651821 (The Scripps Research Institute Molecular Screening Center, 2012):
The entries are a selection whose mix differs from that of the whole data set. Activity calls are given as the source filed them.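 How the source made its calls: active means inhibition above the plate cutoff, the mean of all test compounds on that plate plus 3 SD (cut at about 35% in these data); inactive means the rest.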

Experiment: binders of r(CAG) RNA repeats, primary screen, biochemical, fluorescence (AID 651821);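 further: 0% = DMSO alone and 100% = 100 µM mitoxantrone as full dye displacement; higher means more dye released from RNA so lower well fluorescence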
Conditions: r(CAG) RNA repeat, TO-PRO-1 dye displacement fluorescence; at 3 µM; hits give high values

Row | SMILES | inhibition
1 | O=C(NCC1(N2CCCCC2)CCCCC1)c1cccc([N+](=O)[O-])c1 | inactive: 1.49%
2 | CCN1CCC(Nc2ccc(Cl)cc2)CC1 | inactive: -4.22%
3 | N#CC1(Nc2ccccc2)CCN(CCc2ccccc2)CC1 | inactive: -0.89%
4 | O=c1[nH]c2ccccc2n1C1CCN(C(c2ccccc2OC(F)(F)F)c2nnnn2C2CCCC2)CC1 (stereo not given) | inactive: 4%
5 | CC(C)(C)n1nnnc1C(c1ccccc1OC(F)(F)F)N1CCC(n2c(=O)[nH]c3ccccc32)CC1 (stereo not given) | inactive: 2.96%
6 | O=C(NCC1(N2CCCCC2)CCCCC1)c1ccc(OC(F)F)cc1 | inactive: 3.86%
7 | CC(C)(C)n1nnnc1C(c1cccc2ccccc12)N1CCC(n2c(=O)[nH]c3ccccc32)CC1 (stereo not given) | inactive: 10.8%
8 | c1ccc(CN2CCC(Nc3ccccc3)CC2)cc1 | inactive: -5.08%
9 | C/C(N)=N\P(=O)(Oc1ccccc1)Oc1ccccc1 | inactive: 2.54%
10 | Cc1cc(N(CCCl)CCCl)ccc1C=O | inactive: -0.24%
11 | O=c1[nH]c2ccccc2n1C1CCN(C(c2ccccc2)c2nnnn2C2CCCC2)CC1 (stereo not given) | inactive: 4.83%
12 | CCCN1CCC(Nc2cc(OC)cc(OC)c2)CC1 | inactive: -8.43%
13 | CN(C)C1(CNC(=O)c2cccc(C#N)c2)CCCCC1 | inactive: -2.24%
14 | CC(C)(C)OC(=O)N1CCC(N(C(=O)c2ccccc2)c2ccc(Cl)cc2)CC1 | inactive: -9.71%
15 | N#Cc1ccc(C(=O)NCC2(N3CCCCC3)CCCCC2)cc1 | inactive: -2.94%
16 | CCCCn1nnnc1C(c1cccc(OC)c1OC)N1CCC(n2c(=O)[nH]c3ccccc32)CC1 (stereo not given) | inactive: 4.93%
17 | O=C(OC1CN2CCC1CC2)C1c2ccccc2C=Cc2ccccc21 (stereo not given) | inactive: -2.41%
18 | O=c1[nH]c2ccccc2n1C1CCN(C(c2cccs2)c2nnnn2C2CCCC2)CC1 (stereo not given) | inactive: 3.45%
19 | N/C(=N\O)c1c(N)no[n+]1[O-] | inactive: 0.52%
20 | COc1cccc(C(c2nnnn2C(C)(C)C)N2CCC(n3c(=O)[nH]c4ccccc43)CC2)c1OC (stereo not given) | inactive: 3.2%
21 | CCOC(=O)N1CCC(Nc2ccc(C)cc2)CC1 | inactive: -4.72%
22 | COc1ccc(C(=O)NCC2(N3CCOCC3)CCCCC2)cc1OC | inactive: -9.98%
23 | O=c1[nH]c2ccccc2n1C1CCN(C(c2ccnc3ccccc23)c2nnnn2C2CCCC2)CC1 (stereo not given) | inactive: 6.26%
24 | O=c1[nH]c2ccccc2n1C1CCN(C(c2cccs2)c2nnnn2C2CCCCC2)CC1 (stereo not given) | inactive: 14%
25 | NC(=O)C1(Nc2ccccc2)CCN(Cc2ccccc2)CC1 | inactive: 0.53%
26 | O=C(NCC1(N2CCOCC2)CCCCC1)c1cc(Br)ccc1Cl | inactive: -1.52%
27 | CCCCn1nnnc1C(c1ccccc1)N1CCC(n2c(=O)[nH]c3ccccc32)CC1 (stereo not given) | inactive: -1.39%
28 | COc1cc(C(=O)NCC2(N3CCOCC3)CCCCC2)cc(OC)c1C | inactive: -6.95%

Row | SMILES | inhibition
29 | CN1CCC(Nc2ccc(Cl)cc2)CC1 | inactive: -1.1%
30 | CCC(CO)(C(=O)OC1CN2CCC1CC2)c1ccccc1 (stereo not given) | inactive: -0.24%
31 | COc1cccc(C(c2nnnn2C2CCCC2)N2CCC(n3c(=O)[nH]c4ccccc43)CC2)c1OC (stereo not given) | inactive: 4.12%
32 | COc1cc(OC)cc(C(=O)NCC2(N3CCOCC3)CCCCC2)c1 | inactive: -9.56%
33 | COc1cccc(C(=O)N(c2cc(C)cc(C)c2)C2CCN(C(=O)OC(C)(C)C)CC2)c1 | inactive: -4.39%
34 | CCCOc1ccc(C(=O)NCC2(N(C)C)CCCCC2)cc1 | inactive: -6.33%
35 | O=c1[nH]c2ccccc2n1C1CCN(C(c2cc3ccccc3o2)c2nnnn2C2CCCC2)CC1 (stereo not given) | inactive: 11.7%
36 | CC(C)(C)OC(=O)N1CCC(Nc2ccccc2)CC1 | inactive: -4.92%
37 | O=C(O)C1(Nc2ccccc2)CCN(Cc2ccccc2)CC1 | inactive: -0.77%
38 | NN(c1ccccc1)C1CCN(CCc2ccccc2)CC1 | inactive: 1.8%
39 | CCOc1ncccc1C(=O)NCC1(N2CCOCC2)CCCCC1 | inactive: -8.32%
40 | CN1CCC(Nc2ccc(F)c(Cl)c2)CC1 | inactive: -1.28%
41 | O=C(NCC1(N2CCCCC2)CCCCC1)c1ccco1 | inactive: -0.02%
42 | Cn1c(=O)[nH]cc(N(CCCl)CCCl)c1=O | inactive: 2.37%
43 | CN(C)c1ccc(C(=O)NCC2(N3CCCCC3)CCCCC2)cc1 | inactive: -2.24%
44 | Cc1ccccc1NC1(C#N)CCN(Cc2ccccc2)CC1 | inactive: 0.28%
45 | CC(C)(C)n1nnnc1C(c1ccnc2ccccc12)N1CCC(n2c(=O)[nH]c3ccccc32)CC1 (stereo not given) | inactive: 2.51%
46 | CCN1CCC(Nc2cccc(F)c2)CC1 | inactive: -1.57%
47 | COc1ccc(C(c2nnnn2C2CCCCC2)N2CCC(n3c(=O)[nH]c4ccccc43)CC2)cc1 (stereo not given) | inactive: 1.69%
48 | Cc1ccc(NC2(C#N)CCN(Cc3ccccc3)CC2)cc1 | inactive: -0.05%
49 | Cc1ccc(C(=O)NCC2(N3CCCCC3)CCCCC2)o1 | inactive: -2.24%
50 | Fc1ccccc1NC1CCN(Cc2ccccc2)CC1 | inactive: -1.18%
51 | O=c1[nH]c2ccccc2n1C1CCN(C(c2ccnc3ccccc23)c2nnnn2C2CCCCC2)CC1 (stereo not given) | inactive: 5.28%
52 | COc1cc(OC)cc(C(=O)NCC2(N3CCCCC3)CCCCC2)c1 | inactive: -2.14%
53 | CC(=O)N(c1ccccc1)C1CCNCC1 | inactive: -0.05%
54 | COc1cccc(C(c2nnnn2C2CCCCC2)N2CCC(n3c(=O)[nH]c4ccccc43)CC2)c1OC (stereo not given) | inactive: 4.78%
55 | CCC(c1nnnn1C1CCCCC1)N1CCC(n2c(=O)[nH]c3ccccc32)CC1 (stereo not given) | inactive: 2%
